Experimental data taken from patent US20050026270A1, “Stable subtilin and methods of manufacture” (University of Maryland, priority 1999, published 2005).

Assay: Stability of subtilin: activity retained after storage or exposure to light
Details: 5 days of storage at 4° C.

Which “activity remaining after storage” value does the source give for “subtilin [subtilin prepared according to Jensen and Hirschman]” here?
The value was “less than 5%”.
